{"sequences": {"note": "Amino acid sequences for entries named in this document (tags omitted).", "UniProt P08183, whole entry": "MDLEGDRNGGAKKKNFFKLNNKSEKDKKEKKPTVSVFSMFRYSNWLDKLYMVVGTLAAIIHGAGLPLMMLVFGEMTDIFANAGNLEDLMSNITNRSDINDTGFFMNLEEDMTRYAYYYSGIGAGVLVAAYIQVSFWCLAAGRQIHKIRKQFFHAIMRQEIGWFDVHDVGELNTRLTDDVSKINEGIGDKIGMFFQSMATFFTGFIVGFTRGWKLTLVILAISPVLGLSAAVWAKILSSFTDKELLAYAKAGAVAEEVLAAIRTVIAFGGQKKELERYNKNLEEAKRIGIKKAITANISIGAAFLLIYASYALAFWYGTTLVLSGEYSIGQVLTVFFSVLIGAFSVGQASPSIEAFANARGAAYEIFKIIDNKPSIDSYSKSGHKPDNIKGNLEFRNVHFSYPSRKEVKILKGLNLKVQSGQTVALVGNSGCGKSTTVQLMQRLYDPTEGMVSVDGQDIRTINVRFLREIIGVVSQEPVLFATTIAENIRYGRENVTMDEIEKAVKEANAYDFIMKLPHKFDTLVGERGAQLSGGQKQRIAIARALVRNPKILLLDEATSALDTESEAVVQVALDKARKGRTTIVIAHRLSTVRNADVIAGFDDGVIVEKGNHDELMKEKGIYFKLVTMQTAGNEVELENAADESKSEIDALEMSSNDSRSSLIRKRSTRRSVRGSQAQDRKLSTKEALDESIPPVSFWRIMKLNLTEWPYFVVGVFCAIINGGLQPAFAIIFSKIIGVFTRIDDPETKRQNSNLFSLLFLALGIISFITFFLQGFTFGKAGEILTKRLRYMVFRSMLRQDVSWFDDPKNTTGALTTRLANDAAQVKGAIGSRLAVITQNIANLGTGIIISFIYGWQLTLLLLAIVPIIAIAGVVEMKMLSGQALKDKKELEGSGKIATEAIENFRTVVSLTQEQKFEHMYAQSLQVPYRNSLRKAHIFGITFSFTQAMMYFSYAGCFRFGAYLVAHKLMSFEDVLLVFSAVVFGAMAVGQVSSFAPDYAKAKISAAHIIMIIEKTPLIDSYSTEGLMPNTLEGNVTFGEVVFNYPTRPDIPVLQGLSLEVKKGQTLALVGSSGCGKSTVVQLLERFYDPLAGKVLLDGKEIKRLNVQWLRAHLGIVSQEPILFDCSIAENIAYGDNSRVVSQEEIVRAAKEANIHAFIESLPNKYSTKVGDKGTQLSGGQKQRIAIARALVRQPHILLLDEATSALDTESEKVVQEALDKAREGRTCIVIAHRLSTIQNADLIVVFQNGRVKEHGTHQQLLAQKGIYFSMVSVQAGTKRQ"}, "source": "patent US9902940B2", "about": "“Human blood-brain barrier endothelial cells derived from pluripotent stem cells and blood-brain barrier model thereof” (Wisconsin Alumni Research Foundation, priority 2010, dated 2018)", "key": {"[1]": {"test_system": "p-glycoprotein, BCRP and MRP family efflux transporters", "assay": "Apical-to-basolateral transport of doxorubicin with efflux inhibitors, IMR90-4-derived BMEC/astrocyte model", "assay_type": "in vitro ADME, human", "conditions": "astrocyte co-culture; 60 min; normalized to no inhibitor"}, "[2]": {"test_system": "p-glycoprotein, BCRP, and the MRP family", "assay": "Doxorubicin accumulation assay with efflux inhibitors in monocultured IMR90-4-derived BMECs", "conditions": "monoculture; doxorubicin 0.25 μCi, 1 h; 5 μM cyclosporin A, 1 μM Ko143 or 10 μM MK 571"}, "[3]": {"test_system": "BBB influx and efflux transporters (GLUT-1, MDR1, BCRP, MRP family, organic cation transporters)", "conditions": "efflux transporter inhibitors (Table 6); cited from earlier work"}, "p-glycoprotein [4]": {"molecular_target": "T1, p-glycoprotein (Homo sapiens, UniProt P08183)", "assay": "Apical-to-basolateral transport of rhodamine 123 with efflux inhibitors, IMR90-4-derived BMEC/astrocyte model", "conditions": "astrocyte co-culture; 60 min; normalized to no inhibitor"}, "p-glycoprotein [5]": {"molecular_target": "T1, p-glycoprotein", "assay": "Rhodamine 123 accumulation assay with efflux inhibitors in monocultured IMR90-4-derived BMECs", "conditions": "monoculture; 10 μM rhodamine 123, 1 h; 5 μM cyclosporin A, 1 μM Ko143 or 10 μM MK 571; normalized to no inhibitor"}}}
{"smiles": "CN(C)C(=O)CCSC(SCCC(=O)O)c1cccc(/C=C/c2ccc3ccc(Cl)cc3n2)c1", "note": "(centres unmarked) [MK 571]", "values": [{"measurement": "transport of doxorubicin from the apical to basolateral chamber in the presence of inhibitor", "setting": "[1]", "value": 1.17, "unit": "fold"}, {"measurement": "accumulation of doxorubicin in the presence of inhibitor", "setting": "[2]", "value": "increased"}, {"measurement": "Transporter recognition", "setting": "[3]", "value": "MRP family"}]}
{"smiles": "COc1ccc2c3c([nH]c2c1)[C@H](CC(C)C)N1C(=O)[C@H](CCC(=O)OC(C)(C)C)NC(=O)[C@@H]1C3", "note": "[Ko143]", "values": [{"measurement": "transport of rhodamine 123 from the apical to basolateral chamber in the presence of inhibitor", "setting": "p-glycoprotein [4]", "value": "not"}, {"measurement": "increase in cellular accumulation of rhodamine 123 in the presence of inhibitor", "setting": "p-glycoprotein [5]", "value": "not"}]}
